Binding of CDR-mutated scFvs to a peptide of the spike HR2 region

From the AlphaSeq antibody data of Engelhart et al. 2022 (doi:10.1038/s41597-022-01779-4), copy in the FLAb collection.

Binding partner: SARS-CoV-2 spike HR2 peptide, sequence PDVDLGDISGINAS.

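Phage display of a naive human antibody library on the peptide gave the parent. In library AAYL51, one, two or three CDR residues were substituted; doubles and triples were drawn at random. The assay is AlphaSeq: two haploid yeast populations carry antibody and antigen on their surface. The frequency of each diploid, read from paired DNA barcodes, reflects how well the two displayed proteins bind. Read counts were normalised to the haploid input and turned into Kd by a linear fit to BCL2-family pairs of known affinity, for each replicate. The assay was run in three technical replicates.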

Ab-91 is the parent antibody, in scFv form: VL, then the linker GGGGSGGGGSGGGGS, then VH. The light chain is unchanged in all variants.
VL: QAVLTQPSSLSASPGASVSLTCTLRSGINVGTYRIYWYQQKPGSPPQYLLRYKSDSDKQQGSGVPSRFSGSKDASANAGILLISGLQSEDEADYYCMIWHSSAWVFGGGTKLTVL
VH: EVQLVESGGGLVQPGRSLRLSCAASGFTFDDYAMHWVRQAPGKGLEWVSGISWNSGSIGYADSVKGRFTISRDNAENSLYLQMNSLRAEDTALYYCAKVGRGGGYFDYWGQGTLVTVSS

Variants are written as CDR1, CDR2 and CDR3 of the heavy chain (limits as in the source). Parent: GFTFDDYAMH, GISWNSGSIGYADSVK, VGRGGGYFDY.
Numbers give log10(Kd / nM), so 0 is 1 nM and 3 is 1 µM. Smaller is tighter.
The mean shown is taken over the replicates in which the pair was detected.
"nd" means that the variant was in the library but no mating with the target was seen in that replicate; the authors take this as a sign of poor binding, and no number exists.
Three control strains display no target. For library AAYL51, 21% of the pairings with them gave a signal, with a median of 4.54 and one signal in twenty below 3.26, so weak values seen in few replicates may be background. The control count says in how many pairings with the empty strains this scFv gave a signal, with their mean in brackets.

| # | CDR-H1 | CDR-H2 | CDR-H3 | replicates, log10 nM | mean log10 Kd (nM) | empty controls |
|---|---|---|---|---|---|---|
| 1 | GFTFDDYAQH | WISWNSGSIGYADSVK | VGRGGGYFDY | 4.43 / nd / 4.91 | 4.67 | 4 of 9 (5.15) |
| 2 | GFTFDDHAMH | GISWNSGSIGYADSVK | VIRGGGYDDY | 1.06 / 1.30 / 0.33 | 0.90 | 0 of 9 |
| 3 | GRTFDDYAMH | GISWNSGSIGYADSVK | KGRGPGYFDY | nd / nd / nd | nd | 1 of 9 (3.90) |
| 4 | GFTFDDYAMH | GISGNSGSIGYADSTK | VGRGGGAFDY | 2.20 / 2.12 / 1.83 | 2.05 | 0 of 9 |
| 5 | GFTFDDYAMH | GISWSSGSHGYADSVK | VGRHGGYFDY | nd / nd / nd | nd | 0 of 9 |
| 6 | GFTFDDYAMH | GISWNSPSIGYAPSVR | VGRGGGYFDY | nd / nd / nd | nd | 1 of 9 (4.16) |
| 7 | GNTFLDYAMH | GISWNSGSIVYADSVK | VGRGGGYFDY | 4.40 / 4.46 / 5.63 | 4.83 | 5 of 9 (4.44) |
| 8 | GFTFDDLASH | GISQNSGSIGYADSVK | VGRGGGYFDY | 4.78 / nd / 5.57 | 5.17 | 3 of 9 (4.48) |
| 9 | PFLFDDYAMH | GISWNSGSIGYADSVK | VGRIGGYFDY | nd / nd / nd | nd | 2 of 9 (3.38) |
| 10 | GFTFDDLAMH | GISWNSGSIGYADSVK | VGRGAGYFDV | nd / nd / nd | nd | 2 of 9 (3.83) |
| 11 | GFFFDDYIMH | GISWNSGSIGYADSVY | VGRGGGYFDY | 4.76 / 6.01 / 3.91 | 4.89 | 4 of 9 (4.91) |
| 12 | GFTFCDYAMH | CLSWNSGSIGYADSVK | VGRGGGYFDY | 5.26 / nd / 4.25 | 4.76 | 1 of 9 (4.46) |
| 13 | GFTFDLYAMH | GISWMSGSIGYADSVK | VGRGGGYFDY | nd / nd / nd | nd | 0 of 9 |
| 14 | FWTFDDYAMH | GISWNSGSIGYADSVK | VGRGGGYFCY | nd / 5.02 / 4.61 | 4.82 | 2 of 9 (4.40) |
| 15 | GFTFDDYAMH | GISWNSGSIGYADSCK | SGRGGGYFDT | nd / nd / nd | nd | 0 of 9 |
| 16 | GGTFDDYAMH | GSSWNSGSIGYADSVK | VGTGGGYFDY | nd / nd / nd | nd | 2 of 9 (3.65) |
| 17 | GDTFDLYAMH | GISWNSGSIGYADSVK | MGRGGGYFDY | nd / 3.82 / 4.50 | 4.16 | 1 of 9 (4.31) |
| 18 | GFTFDDYAMH | GISWNSGAIGYADSVK | VGRGRGLFDY | nd / 4.45 / nd | 4.45 | 1 of 9 (4.37) |
| 19 | GFTFDDYAMH | GICWNSGSIGIADSVK | VGRGGGYQDY | nd / nd / nd | nd | 0 of 9 |
| 20 | GFTFDDYAMH | GIRWNSGSAGYADSVK | VGRGGGYFDY | nd / nd / nd | nd | 1 of 9 (3.84) |
| 21 | GFTFDDYAMH | LISWNSGSIGYADSVK | VGQGCGYFDY | nd / 5.45 / nd | 5.45 | 5 of 9 (5.13) |
| 22 | GFTFDDYAMH | GISWNSGSIGYADKVK | VGRGGGYHDY | 4.11 / nd / nd | 4.11 | 3 of 9 (4.13) |
| 23 | GFTFDDYAMH | GISQNSGSIGYADSVK | VCRGGGYFGY | nd / nd / nd | nd | 0 of 9 |
| 24 | GFTQDDYAMH | GISWNSLSIGYADSVK | VGRGGGYFDI | nd / nd / nd | nd | 0 of 9 |
| 25 | GFTFDDYAMH | GISWNSGSIGYADSVV | VGRGGWYFDY | 3.74 / 2.96 / 2.95 | 3.21 | 3 of 9 (4.57) |
| 26 | GFTFYDYAMH | GISWNSGSIGYAMSVK | VGRGGTYFDY | nd / nd / nd | nd | 1 of 9 (2.97) |
| 27 | GFTFDDYAMH | GISWNCGSIGYADSVR | VGRGWGYFDY | nd / 4.76 / 5.32 | 5.04 | 1 of 9 (4.40) |
| 28 | GSTFDDYAMH | GISWNSGSIGYADSDK | VGRGGGYKDY | 5.29 / nd / 5.40 | 5.34 | 2 of 9 (5.42) |
| 29 | NYTFDDYAMH | GISWNSGSIGYADSVK | VGCGGGYFDY | nd / nd / nd | nd | 1 of 9 (3.80) |
| 30 | GFTFDDYAMH | GISWNSGSIGYADSVK | VGRGGMYFDY | nd / nd / nd | nd | 1 of 9 (4.25) |
| 31 | GFTFDDYAMH | GISWNSGSIGMADSVK | VGRGGGYFDY | 2.31 / 3.11 / 2.15 | 2.52 | 2 of 9 (4.70) |
| 32 | GFTFDDYAMH | GIYWNSGSIGYADSVH | VGRGGGYFDY | nd / nd / nd | nd | 4 of 9 (4.35) |

Repeated from above, the 4 best binders with a signal in all replicates:

| CDR-H1 | CDR-H2 | CDR-H3 | replicates, log10 nM | mean log10 Kd (nM) | empty controls |
|---|---|---|---|---|---|
| GFTFDDHAMH | GISWNSGSIGYADSVK | VIRGGGYDDY | 1.06 / 1.30 / 0.33 | 0.90 | 0 of 9 |
| GFTFDDYAMH | GISGNSGSIGYADSTK | VGRGGGAFDY | 2.20 / 2.12 / 1.83 | 2.05 | 0 of 9 |
| GFTFDDYAMH | GISWNSGSIGMADSVK | VGRGGGYFDY | 2.31 / 3.11 / 2.15 | 2.52 | 2 of 9 (4.70) |
| GFTFDDYAMH | GISWNSGSIGYADSVV | VGRGGWYFDY | 3.74 / 2.96 / 2.95 | 3.21 | 3 of 9 (4.57) |

Parent in this assay: reference entry 1.86, copy in this library 0.88.